Measurements from ChEMBL document CHEMBL6096662, “Discovery and structure-activity relationship study of nicotinamide derivatives as DNA demethylase ALKBH2 inhibitors” (Eur J Med Chem, 2025).
Active and inactive are the calls of the source.

Experiments:
U-87 MG [1] = assay: Induction of apoptosis in human U87 cells assessed as decrease in Bcl-xL level at 1 to 10 uM incubated for 48 hrs by Western blot analysis; type: functional, cell-based; conditions: U-87MG ATCC, dose 1-10 µM
U-87 MG [2] = assay: Induction of apoptosis in human U87 cells assessed as increase in cleaved caspase-3 level at 1 to 10 uM incubated for 48 hrs by Western blot analysis; type: functional, cell-based; conditions: U-87MG ATCC, dose 1-10 µM
U-87MG ATCC = assay: Upregulation of DNA 3meC level in human U87 cells ast 5 uM incubated for 48 hrs by Dot blot assay; type: functional, cell-based
U-87 MG [3] = assay: Induction of apoptosis in human U87 cells assessed as decrease in BMI1 mRNA level incubated for 48 hrs by RT-qPCR analysis; type: functional, cell-based; conditions: U-87MG ATCC, dose 1-10 µM
U-87 MG [4] = assay: Induction of apoptosis in human U87 cells assessed as decrease in Bcl-2 mRNA level incubated for 48 hrs by RT-qPCR analysis; type: functional, cell-based; conditions: U-87MG ATCC, dose 1-10 µM
U-87 MG [5] = assay: Induction of apoptosis in human U87 cells assessed as decrease in PDGFB mRNA level incubated for 48 hrs by RT-qPCR analysis; type: functional, cell-based; conditions: U-87MG ATCC, dose 1-10 µM
U-87 MG [6] = assay: Induction of apoptosis in human U87 cells assessed as decrease in Bcl-2 level at 1 to 10 uM incubated for 48 hrs by Western blot analysis; type: functional, cell-based; conditions: U-87MG ATCC, dose 1-10 µM
[7] = biological target: T1, DNA oxidative demethylase ALKBH2 (Homo sapiens) (UniProt Q6NS38); assay: Stabilization of mCherry-fused Flag-tagged ALKBH2 (unknown origin) transfected in human U87 cells at 5 uM incubated for 12 hrs at 44 to 50 degreeC by CETSA; type: cell-based
T1 sequence (whole entry): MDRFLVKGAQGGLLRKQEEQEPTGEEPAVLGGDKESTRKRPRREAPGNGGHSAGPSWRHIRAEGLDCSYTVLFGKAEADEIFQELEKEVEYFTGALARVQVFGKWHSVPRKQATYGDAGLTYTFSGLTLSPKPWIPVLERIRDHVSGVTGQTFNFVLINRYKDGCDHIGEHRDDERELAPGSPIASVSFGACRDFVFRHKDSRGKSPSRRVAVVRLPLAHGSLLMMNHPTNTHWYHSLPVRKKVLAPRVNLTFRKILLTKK

U-87 MG [8] = assay: Induction of apoptosis in human U87 cells assessed as decrease in PARP level at 1 to 10 uM incubated for 48 hrs by Western blot analysis; type: functional, cell-based; conditions: U-87MG ATCC, dose 1-10 µM
U-87 MG [9] = assay: Induction of apoptosis in human U87 cells assessed as increase in Bax mRNA level incubated for 48 hrs by RT-qPCR analysis; type: functional, cell-based; conditions: U-87MG ATCC, dose 1-10 µM
[10] = biological target: T1, DNA oxidative demethylase ALKBH2 (Homo sapiens); assay: Induction of thermal stabilization of ALKBH2 (56 to 261 residues)(unknown origin) assessed as change in melting temperature by DSF assay; conditions: dose 0.78-200 µM

Measured: Activity

CCOC(=O)c1cnn(-c2ccc(C(=O)NC(c3ccccc3)C(C)(C)C)cn2)c1 (stereo not drawn)
active: U-87 MG [1] | U-87 MG [2] | U-87MG ATCC | U-87 MG [3] Dose-dependent-effect | U-87 MG [4] Dose-dependent-effect | U-87 MG [5] Dose-dependent-effect | U-87 MG [6] | [7] | U-87 MG [8] | U-87 MG [9] Dose-dependent-effect

CC(C)(C)C(NC(=O)c1ccc(-n2cc(C(=O)O)cn2)nc1)c1ccccc1 (stereo not drawn)
active: U-87MG ATCC | [10] Dose-dependent-effect | [7]
